In patent US20040018971A1 (published 2004) one finds IC50 data, which are given here for 12 molecules.

For assay [1], the target named is HLA-A*0202 (human). Briefly: competition with 125I-labelled probe peptide for purified HLA, gel filtration. (Size exclusion chromatography separates by hydrodynamic size, large species first.)
The target of a further assay is T1, HLA-A*0101 (human).
T1 construct: also called HLA-A1
Briefly: inhibition of 125I-labeled probe peptide binding to purified HLA-A*0101, gel filtration.

For assay [2], the target named is T2, HLA-A*0206 (human).
T2 construct: purified HLA class I molecule
Briefly: competition for purified HLA vs 125I-labelled probe peptide, gel filtration.

In assay [3] the target is T3, HLA-A*0202 (human).
T3 construct: purified HLA class I molecule
Described as above.

Assay [4] addresses HLA-B*5401 (human). Briefly: competition vs 125I-labelled probe peptide, purified HLA, gel filtration.
The target in assay [5] is HLA-A*0206 (human). Briefly: competition with 125I probe peptide for purified HLA.
The target in assay [6] is HLA-B*3501 (human). Briefly: competition vs 125I-labeled standard peptide, purified HLA.
Assay [7] has as its target HLA-A*0202 (human). Briefly: competition with 125I probe peptide for purified HLA.
In assay [8] the target is HLA-B*3501 (human). Briefly: competition vs 125I-labelled probe peptide, purified HLA, gel filtration.
In assay [9] the target is HLA-B*5401 (human). Briefly: competition with 125I probe peptide, purified HLA.
A further assay addresses HLA-A*0203 (human). Briefly: competition with 125I probe peptide for purified HLA.

B1: Her2/neu.952 (10-mer) (peptide)
peptide: YMIMVKCWMI
notes: Synthetic wild-type 10-mer starting at position 952 of HER2/neu
As to B1, the IC50 (commonly the concentration that gives 50% inhibition) with HLA-A*0202 [1] amounted to 307 nM. In turn, SPDFDNLYY (HER2/neu analog peptide) [Her2/neu 1214.D3] came in with an IC50 with HLA-A*0101 of 73.5 nM.

B2: Her2/neu.5.B3V9 (peptide)
peptide: ALBRWGLLV
modifications: B at position 3 = alpha-amino butyric acid
notes: analog of Her2/neu.5; also called ALBRWGLLV
In the case of B2, in the assay with HLA-A*0206 [2], the IC50 turned out to be 285 nM. The molecule YMIMVKCWMI (10-mer) [Her2/neu.952] displayed an IC50 in the assay with HLA-A*0202 [3] of 307 nM.

As to FPTHDPSPL [Her2/neu.1101.F1], the half-inhibitory concentration (IC50) in the assay with HLA-B*5401 [4] is 208 nM.

ALBRWGLLV (B at position 3 = alpha-amino butyric acid) [Her2/neu.5B3V9 ALBRWGLLV] yielded an IC50 with HLA-A*0206 [5] of 285 nM.

B3: Her2/neu.706.F1I10 (peptide)
peptide: FPNQAQMRII
notes: 10-mer analog of the HER2/neu peptide starting at position 706
For B3, in the assay with HLA-B*3501 [6], the IC50 came out at 514 nM. As to YMIMVKCWMI [Her2/neu.952 (10-mer) YMIMVKCWMI], the concentration for half-maximal inhibition (IC50) with HLA-A*0202 [7] worked out at 307 nM.

B4: Her2/neu.995.F1I10 (peptide)
peptide: FPASPLDSTI
notes: 10-mer analog of the HER2/neu peptide starting at position 995
In turn, B4 yielded a concentration for half-maximal inhibition (IC50) in the assay with HLA-B*3501 [8] of 514 nM. In the assay with HLA-B*5401 [9], CPSGVKPDLSI (analog peptide) [Her2/neu.600.I11] yielded an IC50 of 625 nM. In turn, FPSGVKPDLSI (analog peptide) [Her2/neu.600.F1I11] gave a concentration for half-maximal inhibition (IC50) with HLA-B*5401 [9] of 208 nM. Regarding YMIMVKCWM [Her2/neu.952 (9-mer) YMIMVKCWM], the 50% inhibitory concentration (IC50) in the assay with HLA-A*0203 worked out at 625 nM.
